Laboratory results: US20100034880A1, “PHARMACEUTICAL COMPOSITIONS BASED ON A MICROEMULSION” (NANODERMA LTD, priority 2007, published 2010)
Like-named read-outs stand apart in the source and are kept apart here. Marks after values point to notes of the source that are not given here.

What was measured:
[1] = with absorption enhancers (e.g., cyclopentadecalactone or CPE-215); cited from earlier work
[2] = Pharmacokinetics of insulin after IV, SC and IN administration to diabetic rabbits
[3] = Healthy Rabbit #1, IN 1 IU/kg (microemulsion)
[4] = Healthy Rabbit #2, IN 1 IU/kg (microemulsion)
[5] = Diabetic Rabbit #1, IN 1 IU/kg (ME20)
[6] = Diabetic Rabbit #1, IV 0.5 IU/kg
[7] = Diabetic Rabbit #1, SC 0.5 IU/kg
[8] = Diabetic Rabbit #2, IN 1 IU/kg (ME20)
[9] = Diabetic Rabbit #2, IV 0.5 IU/kg
[10] = Diabetic Rabbit #2, SC 0.5 IU/kg
[11] = Diabetic Rabbit #3, IN 1 IU/kg (ME20)
[12] = Diabetic Rabbit #3, IV 0.5 IU/kg
[13] = Diabetic Rabbit #3, SC 0.5 IU/kg
[14] = Diabetic Rabbit #4, IN 1 IU/kg (ME20)
[15] = Diabetic Rabbit #4, IV 0.5 IU/kg
[16] = Diabetic Rabbit #4, SC 0.5 IU/kg

Human insulin
systemic absorption via the nasal route [1]: 10-15%

insulin
?z (lambdaz) [3]: 0.0128 min − 1
AUC0-∞ [3]: 10391.5 mIU · min · L^−1
AUC0-∞/dose [3]: 10391.5 mIU · min · L^−1 · D^−1
Cmax [3]: 160.4 mIU/L
Elimination t1/2 [3]: 53.9 min
tmax [3]: 15 min
?z (lambdaz) (Healthy Rabbit #1, SC 1 IU/kg): 0.0165 min − 1
AUC0-∞ (Healthy Rabbit #1, SC 1 IU/kg): 28952.3 mIU · min · L^−1
AUC0-∞/dose (Healthy Rabbit #1, SC 1 IU/kg): 28952.3 mIU · min · L^−1 · D^−1
Cmax (Healthy Rabbit #1, SC 1 IU/kg): 329.5 mIU/L
Elimination t1/2 (Healthy Rabbit #1, SC 1 IU/kg): 42.0 min
tmax (Healthy Rabbit #1, SC 1 IU/kg): 15 min
Cmax [4]: 141.6 mIU/L
tmax [4]: 15 min
AUC0-∞ (here AUC0-last = AUC0-30) [4]: 3206.9^b mIU · min · L^−1
AUC0-∞/dose (here AUC0-last = AUC0-30) [4]: 3206.9^b mIU · min · L^−1 · D^−1
Cmax (Healthy Rabbit #2, SC 1 IU/kg): 309.2 mIU/L
tmax (Healthy Rabbit #2, SC 1 IU/kg): 15 min
AUC0-∞ (here AUC0-last = AUC0-30) (Healthy Rabbit #2, SC 1 IU/kg): 6426.8^b mIU · min · L^−1
AUC0-∞/dose (here AUC0-last = AUC0-30) (Healthy Rabbit #2, SC 1 IU/kg): 6426.8^b mIU · min · L^−1 · D^−1
?z (lambdaz) [2, 5]: 0.0189 min⁻¹
AUC0-∞ [2, 5]: 5473.1 mIU · min · L^−1
AUC0-∞/dose [2, 5]: 5473.1 mIU · min · L^−1 · D^−1
Cmax [2, 5]: 106.5 mIU/L
Elimination t1/2 [2, 5]: 36.7 min
tmax [2, 5]: 15 min
FA absolute bioavailability ([2]; Diabetic Rabbit #1, IN 1 IU/kg (ME20), relative to IV): 41.2%
?z (lambdaz) [2, 6]: .0113 min⁻¹
AUC0-∞ [2, 6]: 6638.6 mIU · min · L^−1
AUC0-∞/dose [2, 6]: 13277.2 mIU · min · L^−1 · D^−1
Cmax [2, 6]: 253.7 mIU/L
Elimination t1/2 [2, 6]: 61.1 min
FA absolute bioavailability [2, 6]: 100%
tmax [2, 6]: 2 min
?z (lambdaz) [2, 7]: 0.0263 min⁻¹
AUC0-∞ [2, 7]: 12192.7 mIU · min · L^−1
AUC0-∞/dose [2, 7]: 24385.5 mIU · min · L^−1 · D^−1
Cmax [2, 7]: 148.4 mIU/L
Elimination t1/2 [2, 7]: 26.3 min
tmax [2, 7]: 15 min
?z (lambdaz) [2, 8]: 0.0026 min⁻¹
AUC0-∞ [2, 8]: 8675.1 mIU · min · L^−1
AUC0-∞/dose [2, 8]: 8675.1 mIU · min · L^−1 · D^−1
Cmax [2, 8]: 167.3 mIU/L
Elimination t1/2 [2, 8]: 271.1 min
tmax [2, 8]: 15 min
FA absolute bioavailability ([2]; Diabetic Rabbit #2, IN 1 IU/kg (ME20), relative to IV): 70.6%
?z (lambdaz) [2, 9]: 0.03 min⁻¹
AUC0-∞ [2, 9]: 6145.1 mIU · min · L^−1
AUC0-∞/dose [2, 9]: 12290.2 mIU · min · L^−1 · D^−1
Cmax [2, 9]: 183.1 mIU/L
Elimination t1/2 [2, 9]: 23.1 min
FA absolute bioavailability [2, 9]: 100%
tmax [2, 9]: 5 min
?z (lambdaz) [2, 10]: 0.0047 min⁻¹
AUC0-∞ [2, 10]: 16772.0 mIU · min · L^−1
AUC0-∞/dose [2, 10]: 33544.1 mIU · min · L^−1 · D^−1
Cmax [2, 10]: 71.6 mIU/L
Elimination t1/2 [2, 10]: 149.0 min
tmax [2, 10]: 30 min
?z (lambdaz) [2, 11]: 0.0235 min⁻¹
AUC0-∞ [2, 11]: 3644.5 mIU · min · L^−1
AUC0-∞/dose [2, 11]: 3644.5 mIU · min · L^−1 · D^−1
Cmax [2, 11]: 79.5 mIU/L
Elimination t1/2 [2, 11]: 29.4 min
tmax [2, 11]: 15 min
FA absolute bioavailability ([2]; Diabetic Rabbit #3, IN 1 IU/kg (ME20), relative to IV): 27.5%
?z (lambdaz) [2, 12]: 0.0097 min⁻¹
AUC0-∞ [2, 12]: 6628.2 mIU · min · L^−1
AUC0-∞/dose [2, 12]: 13256.4 mIU · min · L^−1 · D^−1
Cmax [2, 12]: 268.3 mIU/L
Elimination t1/2 [2, 12]: 71.7 min
FA absolute bioavailability [2, 12]: 100%
tmax [2, 12]: 15 min
?z (lambdaz) [2, 13]: 0.0164 min⁻¹
AUC0-∞ [2, 13]: 12798.8 mIU · min · L^−1
AUC0-∞/dose [2, 13]: 25597.7 mIU · min · L^−1 · D^−1
Cmax [2, 13]: 121.5 mIU/L
Elimination t1/2 [2, 13]: 42.3 min
tmax [2, 13]: 15 min
?z (lambdaz) [2, 14]: 0.0218 min⁻¹
AUC0-∞ [2, 14]: 3845.4 mIU · min · L^−1
AUC0-∞/dose [2, 14]: 3845.4 mIU · min · L^−1 · D^−1
Cmax [2, 14]: 89.8 mIU/L
Elimination t1/2 [2, 14]: 31.9 min
tmax [2, 14]: 15 min
FA absolute bioavailability ([2]; Diabetic Rabbit #4, IN 1 IU/kg (ME20), relative to IV): 33.0%
?z (lambdaz) [2, 15]: 0.0148 min⁻¹
AUC0-∞ [2, 15]: 5816.2 mIU · min · L^−1
AUC0-∞/dose [2, 15]: 11632.4 mIU · min · L^−1 · D^−1
Cmax [2, 15]: 267.2 mIU/L
Elimination t1/2 [2, 15]: 46.8 min
FA absolute bioavailability [2, 15]: 100%
tmax [2, 15]: 5 min
?z (lambdaz) [2, 16]: 0.0119 min⁻¹
AUC0-∞ [2, 16]: 9130.1 mIU · min · L^−1
AUC0-∞/dose [2, 16]: 18260.2 mIU · min · L^−1 · D^−1
Cmax [2, 16]: 72.5 mIU/L
Elimination t1/2 [2, 16]: 58.4 min
tmax [2, 16]: 45 min
peak insulin plasma level ([2]; diabetic rabbit #1, nasal application): 106.5 ?IU/ml
peak insulin plasma level ([2]; diabetic rabbit #2, nasal application): 167.3 ?IU/ml
peak insulin plasma level ([2]; diabetic rabbit #3, nasal application): 79.5 ?IU/ml
peak insulin plasma level ([2]; diabetic rabbit #4, nasal application): 89.8 ?IU/ml
time to peak insulin plasma level from nasal application ([2]; diabetic rabbits #1 to #4, nasal application): 15 min
